In the test the target is His-tagged human insulin-like growth factor-2 receptor (hIGF2R-His) (human) (UniProt P11717). The test is described as follows: SPR; Biacore; hIGF2R-His amine-coupled (EDC/NHS) to a CM5 chip (6,311 RUs); ligands in PBS + 0.005% Tween 20, twofold series 10 to 0.019 ug/ml, 30 ul/min; fitted to single-site and two-state kinetic models and equilibrium binding.

“Human HIS-tagged STC1 (hSTC1-His) (from UniProt P52823 34-247) (ligand)”: the Kd was in the range of 10 to 20 nM and the binding response is below 1000 RUs.

(Values after PMC9263378.)
